The target in one assay is human STING (Homo sapiens (Human), UniProt Q86WV6, H232R). Kind of assay: STING SPA binding assay. Particulars: read-out: hSTING SPA IC50; displacement of [3H]-2′3′-cGAMP from biotinylated recombinant STING (residues 139-379, H232R); tested form: Na salt. In general terms: Loss of bound radioactivity is the signal in a displacement assay; it reports binding, not function.

By UniProt entry, the sequences of proteins in these tests, tags left out. Residues count along the entry.
UniProt Q86WV6, 139-379 H232R limits assumed: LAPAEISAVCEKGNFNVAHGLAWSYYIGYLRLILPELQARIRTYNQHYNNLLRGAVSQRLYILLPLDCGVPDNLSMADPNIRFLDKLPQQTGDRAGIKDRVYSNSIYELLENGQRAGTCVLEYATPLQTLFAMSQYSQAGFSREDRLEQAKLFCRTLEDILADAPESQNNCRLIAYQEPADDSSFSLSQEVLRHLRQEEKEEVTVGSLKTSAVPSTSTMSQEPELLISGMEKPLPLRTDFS

In assay [1] the test system is human STING pathway in THP1-ISG cells. Kind of assay: STING human cell reporter assay. The format is cell-based. Particulars: read-out: human cell reporter EC50, IRF-inducible SEAP reporter, 24 h, tested form: Na salt. For orientation: In a reporter assay the amount or activity of a reporter protein is the signal.

Molecules are shown by their SMILES.

On to `Nc1ncnc2c1ncn2[C@@H]1O[C@@H]2CNS(=O)(=O)O[C@H]3C[C@H](n4nnc5c(N)ncnc54)O[C@@H]3COP(=O)(O)O[C@H]2[C@H]1F`, for which, on human STING, the concentration for half-maximal inhibition (IC50) is greater than 100 µM. For the same compound, in assay [1], the EC50 is greater than 100 µM.

In the case of `Nc1ncnc2c1ncn2[C@@H]1O[C@@H]2CNS(=O)(=O)O[C@H]3[C@H]4OC[C@]3(COP(=O)(O)O[C@H]2[C@H]1F)O[C@H]4n1cnc2c(N)ncnc21`, the IC50 on human STING worked out at 5.44 µM. Also, in assay [1], the EC50 is 0.38 µM.

Turning to `Nc1nc2c(ncn2[C@H]2C[C@@H]3OS(=O)(=O)NC[C@H]4O[C@@H](n5cnc6c(N)ncnc65)[C@H](F)[C@@H]4OP(=O)(O)OC[C@H]3O2)c(=O)[nH]1`, the EC50 in assay [1] was 2.28 µM.

For the compound `Nc1ncnc2c1ncn2[C@@H]1O[C@@H]2CNS(=O)(=O)O[C@H]3[C@@H](F)[C@H](n4cnc5c(=O)[nH]cnc54)O[C@@H]3COP(=O)(O)O[C@H]2[C@H]1F`, the IC50 at human STING was 3.79 µM. The EC50 in assay [1] is 0.32 µM.

Turning to `Nc1nc2c(nnn2[C@H]2C[C@@H]3OS(=O)(=O)NC[C@H]4O[C@@H](n5cnc6c(N)ncnc65)[C@H](F)[C@@H]4OP(=O)(O)OC[C@H]3O2)c(=O)[nH]1`, the IC50 on human STING came to 33.7 µM. In addition, in assay [1], the EC50 turned out to be 0.15 µM.

As for `Nc1ncnc2c1ncn2[C@@H]1O[C@@H]2CNS(=O)(=O)O[C@H]3C[C@H](n4cc(F)c5c(=O)[nH]cnc54)O[C@@H]3COP(=O)(O)O[C@H]2[C@H]1F`, the IC50 at human STING is greater than 100 µM. Moreover, the concentration for a half-maximal effect (EC50) in assay [1] is greater than 100 µM.

In the case of `COc1ccc(CO[C@@H]2[C@@H]3OS(=O)(=O)NC[C@H]4O[C@@H](n5cnc6c(N)ncnc65)[C@H](F)[C@@H]4OP(=O)(S)OC[C@H]3O[C@H]2n2cnc3c(N)ncnc32)cc1` (single isomer, unassigned), the IC50 at human STING was greater than 100 µM. Also, the EC50 in assay [1] was greater than 100 µM.

Take `Nc1nc2c(ncn2[C@@H]2C[C@@H]3COP(=O)(O)O[C@H]4[C@@H](F)[C@H](n5cnc6c(N)ncnc65)O[C@@H]4CNS(=O)(=O)O[C@H]3[C@H]2O)c(=O)[nH]1`: the IC50 at human STING stood at 33.4 µM.

A word on the IC50: it is the point on the concentration scale where inhibition reaches its midpoint. For orientation: EC50 means the concentration that produces a half-maximal response.

Source of the values: patent US11597746B2.
